{"sequences": {"note": "The chains behind the UniProt entries cited, without tags or fusion partners. Residues count along the entry.", "UniProt P10721, 26-976": "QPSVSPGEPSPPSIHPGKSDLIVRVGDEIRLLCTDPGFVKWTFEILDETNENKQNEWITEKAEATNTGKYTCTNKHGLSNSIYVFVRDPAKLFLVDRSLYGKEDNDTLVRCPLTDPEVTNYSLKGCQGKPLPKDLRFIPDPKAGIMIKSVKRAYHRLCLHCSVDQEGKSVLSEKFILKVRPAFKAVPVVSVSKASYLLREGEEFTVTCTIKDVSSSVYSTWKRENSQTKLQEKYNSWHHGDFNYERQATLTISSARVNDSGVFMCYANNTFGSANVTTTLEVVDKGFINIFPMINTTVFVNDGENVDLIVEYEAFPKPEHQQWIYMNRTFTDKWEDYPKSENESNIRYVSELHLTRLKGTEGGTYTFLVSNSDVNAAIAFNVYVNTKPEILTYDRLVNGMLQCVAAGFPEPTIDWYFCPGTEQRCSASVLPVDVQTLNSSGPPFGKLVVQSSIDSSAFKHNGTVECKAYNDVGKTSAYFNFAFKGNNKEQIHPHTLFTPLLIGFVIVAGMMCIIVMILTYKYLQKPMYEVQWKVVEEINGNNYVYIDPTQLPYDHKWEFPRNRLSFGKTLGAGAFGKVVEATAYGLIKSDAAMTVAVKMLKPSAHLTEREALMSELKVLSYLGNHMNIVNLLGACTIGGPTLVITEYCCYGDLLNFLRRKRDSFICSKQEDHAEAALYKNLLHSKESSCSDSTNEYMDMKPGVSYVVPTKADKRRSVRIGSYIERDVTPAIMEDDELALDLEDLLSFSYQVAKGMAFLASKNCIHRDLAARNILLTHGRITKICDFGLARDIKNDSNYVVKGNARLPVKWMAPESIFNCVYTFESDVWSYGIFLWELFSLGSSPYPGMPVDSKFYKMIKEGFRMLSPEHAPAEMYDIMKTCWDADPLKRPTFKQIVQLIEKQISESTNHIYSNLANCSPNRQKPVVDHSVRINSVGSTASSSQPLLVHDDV"}, "source": "patent US20250059174A1", "about": "“Pharmaceutical Compounds and Compositions as C-Kit Kinase Inhibitors” (Enanta Pharmaceuticals, Inc., priority 2023, published 2025)", "molecular_target": "Recombinant human c-KIT kinase (Homo sapiens (Human), UniProt P10721)", "experiment": "c-KIT kinase chemiluminescence assay (ADP-Glo)", "assay_type": "biochemical", "procedure": "The c-KIT Kinase Enzyme System (V4498) and ADP-Glo™ Kinase Assay kit (V6930) were purchased from Promega (Madison, WI). DMSO (D2650) was purchased from Sigma-Aldrich (Burlington, MA).\nKinase Reaction: The kinase assay was based on the recommended protocol by c-KIT Kinase Enzyme System from Promega. Recombinant human c-KIT kinase in 3 μL of assay buffer (40 mM Tris pH 7.5, 20 mM MgCl2, 0.1 mg/mL BSA and 50 μM DTT) was added to the test or high control wells and 3 μL of assay buffer was added to the low control wells. The microplate was centrifuged at 800 rotations per minute (rpm) for 60 s and incubated at room temperature (RT) for 30 min. Next, 2 μL of buffered ATP and polyEY substrate solution was added to all wells. The microplate was centrifuged at 800 rpm for 60 s and incubated at RT for 2 h.\nADP detection with ADP-Glo™ Kinase Assay: After the kinase reaction incubation, 5 μL of ADP-Glo™ reagent was added to all wells. The microplate was centrifuged at 800 rpm for 60 s and incubated at RT for 40 min. Ten microliter (10 μL) of Kinase Detection Reagent (Luciferin-Luciferase system) was then added to all wells. The microplate was centrifuged at 800 rpm for 60 s and incubated at RT for 60 min. Kinase activity was measured as increase in luminescence at RT in an Envision plate reader equipped with 560 nm filters and operating in endpoint mode. […]"}
{"smiles": "Cc1ccc(-c2noc([C@H]3C[C@@H]3F)n2)cc1NC(=O)c1cnc(-c2cnc3c(cnn3C3CCCCO3)c2)o1", "note": "(stereo partly shown) [Example 375]", "values": [{"measurement": "IC50", "value": "100 to 1000", "unit": "nM"}]}
